From patent US12215123B2, “Cordycepin-based derivatized compound with anti-tumor effect” (NANJING TECH UNIVERSITY, priority 2022, dated 2025)

Test system: wild-type AB-line zebrafish
Conditions: 3 dpf to 5 dpf, 35° C.; survival rate>90% and teratogenicity<20%
Description: The zebrafish model is a wild-type AB-line zebrafish from College of Biotechnology and Pharmaceutical Engineering, Nanjing Tech University, and is carried out by a natural mating reproduction method, with 30 zebrafish of 2 dpf in each experimental group. The zebrafish is fed in fish culture water at 28° C. (water quality:200 mg of instant sea salt and CaCO3 are added into 1 L of reverse osmosis water with a conductivity of 480 uS/cm to 510 uS/cm, a pH value of 6.9 to 7.2, and a hardness of 53.7 mg/L to 71.6 mg/L), and the feeding management meets the requirements of international AAALAC certification.
240 3 dpf wild-type AB-line zebrafish were randomly selected in an 8-well plate, with 30 zebrafish in each well, and 3 mL of fish culture water in each well, the cordycepin was diluted according to a maximum lethal dose, dissolved in DMSO, and added into each well according to a concentration gradient (the maximum lethal dose was diluted by 100 times, in which 8 concentration gradient values were taken for the experiment), and meanwhile, a normal control group, a solvent control group G (5% glucose) and a solvent control group D (DMSO) were set. […]

## isopropyl((((3-azide-4-hydroxy-5-(6-(isoniazid)-9H-purin-9-yl)tetrahydrofuran-2-yl)methoxy)methyl)(phenoxy)phosphoryl)alanine ester [Compound 28]
  Maximum tolerance dose (MTD) in zebrafish model: 5 µM
